Measurements: PubChem BioAssay AID504326 (The Scripps Research Institute Molecular Screening Center, 2011)
Only a part is listed here, and it is no random draw. The source made the active and inactive calls. No stated cut-off is given here; in the data, active means activation above about 18%; inactive means the rest.

Protein sequences, listed by entry. Tags and fused reporters are not part of them.
UniProt P35372, whole entry, looked up: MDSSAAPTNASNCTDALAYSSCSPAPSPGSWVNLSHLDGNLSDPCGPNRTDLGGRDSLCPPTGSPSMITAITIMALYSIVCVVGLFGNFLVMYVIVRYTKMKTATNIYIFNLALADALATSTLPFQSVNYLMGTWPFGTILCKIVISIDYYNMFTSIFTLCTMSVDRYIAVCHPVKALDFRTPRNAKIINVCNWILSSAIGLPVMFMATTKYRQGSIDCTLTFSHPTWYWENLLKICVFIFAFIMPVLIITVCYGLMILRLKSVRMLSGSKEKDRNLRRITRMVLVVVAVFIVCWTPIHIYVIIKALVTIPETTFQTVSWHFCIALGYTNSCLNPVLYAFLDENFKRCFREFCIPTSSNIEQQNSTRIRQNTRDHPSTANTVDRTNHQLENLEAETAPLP
UniProt P41143, whole entry, looked up: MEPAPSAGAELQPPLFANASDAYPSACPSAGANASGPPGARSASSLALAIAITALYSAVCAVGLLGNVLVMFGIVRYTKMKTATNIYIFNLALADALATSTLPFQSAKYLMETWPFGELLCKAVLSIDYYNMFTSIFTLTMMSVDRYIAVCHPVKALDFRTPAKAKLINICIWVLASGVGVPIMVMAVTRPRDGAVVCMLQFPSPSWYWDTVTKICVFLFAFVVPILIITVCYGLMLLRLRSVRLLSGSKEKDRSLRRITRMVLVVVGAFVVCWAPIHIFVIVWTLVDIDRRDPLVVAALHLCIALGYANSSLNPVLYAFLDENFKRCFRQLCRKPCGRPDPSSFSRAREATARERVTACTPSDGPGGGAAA

The compounds below were run against Mu-type opioid receptor (Homo sapiens) + Delta-type opioid receptor (Homo sapiens) (UniProt P35372+P41143) (assay: agonists of OPRM1-OPRD1 heterodimerization, primary screen, cell-based, luminescence (AID 504326;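 further: 0% = vehicle-treated cells and 100% = reference agonist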)). Settings: cells, at 9.3 µM, stronger effect = higher value.
For `O=C(O)C1(Nc2ccccc2)CCN(Cc2ccccc2)CC1`, the activation was inactive: 2.75%.
In the case of `CC(C)(C)OC(=O)N1CCC(Nc2ccccc2)CC1`, the activation is reported as inactive: -1.78%.
`CCCOc1ccc(C(=O)NCC2(N(C)C)CCCCC2)cc1` was tested, and the activation was inactive: 4.32%.
`CN1CCC(Nc2ccc(F)c(Cl)c2)CC1` was tested, and the activation was inactive: -1.69%.
With `CCOc1ncccc1C(=O)NCC1(N2CCOCC2)CCCCC1` the activation was inactive: -1.53%.
With `CN1CCC(Nc2ccc(Cl)cc2)CC1` the activation was inactive: -0.98%.
With `COc1cccc(C(=O)N(c2cc(C)cc(C)c2)C2CCN(C(=O)OC(C)(C)C)CC2)c1` the activation was inactive: 5.27%.
`COc1cc(OC)cc(C(=O)NCC2(N3CCOCC3)CCCCC2)c1` was tested, and the activation was inactive: 1.12%.
`CCC(CO)(C(=O)OC1CN2CCC1CC2)c1ccccc1` (centres undefined) was tested, and the activation was inactive: 0.43%.
`Fc1ccccc1NC1CCN(Cc2ccccc2)CC1` was tested, and the activation was inactive: -0.24%.
In the case of `Cc1ccc(C(=O)NCC2(N3CCCCC3)CCCCC2)o1`, the activation is reported as inactive: -1.68%.
For `Cc1ccc(NC2(C#N)CCN(Cc3ccccc3)CC2)cc1`, the activation was inactive: 0.35%.
With `CC(=O)N(c1ccccc1)C1CCNCC1` the activation was inactive: -3.34%.
`COc1cc(OC)cc(C(=O)NCC2(N3CCCCC3)CCCCC2)c1` was tested, and the activation was inactive: -0.35%.
`CN(C)c1ccc(C(=O)NCC2(N3CCCCC3)CCCCC2)cc1` was tested, and the activation was inactive: -0.62%.
With `Cn1c(=O)[nH]cc(N(CCCl)CCCl)c1=O` the activation was inactive: -2.28%.
`O=C(NCC1(N2CCCCC2)CCCCC1)c1ccco1` was tested, and the activation was inactive: -2.23%.
For `CCN1CCC(Nc2cccc(F)c2)CC1`, the activation was inactive: 0.6%.
`Cc1ccccc1NC1(C#N)CCN(Cc2ccccc2)CC1` was tested, and the activation was inactive: -2.86%.
In the case of `N#Cc1ccc(C(=O)NCC2(N3CCCCC3)CCCCC2)cc1`, the activation is reported as inactive: -1.02%.
In the case of `CC(C)(C)OC(=O)N1CCC(N(C(=O)c2ccccc2)c2ccc(Cl)cc2)CC1`, the activation is reported as inactive: 0.92%.
For `CN(C)C1(CNC(=O)c2cccc(C#N)c2)CCCCC1`, the activation was inactive: -2.35%.
`CCCN1CCC(Nc2cc(OC)cc(OC)c2)CC1` was tested, and the activation was inactive: 2.27%.
For `Cc1cc(N(CCCl)CCCl)ccc1C=O`, the activation was inactive: -3.04%.
In the case of `c1ccc(CN2CCC(Nc3ccccc3)CC2)cc1`, the activation is reported as inactive: -0.94%.
In the case of `COc1ccc(C(=O)NCC2(N3CCOCC3)CCCCC2)cc1OC`, the activation is reported as inactive: -0.21%.
For `COc1cc(C(=O)NCC2(N3CCOCC3)CCCCC2)cc(OC)c1C`, the activation was inactive: 1.26%.
With `O=C(NCC1(N2CCOCC2)CCCCC1)c1cc(Br)ccc1Cl` the activation was inactive: 5.97%.
In the case of `O=C(OC1CN2CCC1CC2)C1c2ccccc2C=Cc2ccccc21` (centres undefined), the activation is reported as inactive: 1.25%.
With `CCOC(=O)N1CCC(Nc2ccc(C)cc2)CC1` the activation was inactive: -2.81%.
With `N/C(=N\O)c1c(N)no[n+]1[O-]` the activation was inactive: -1.92%.
With `O=C(NCC1(N2CCOCC2)CCCCC1)c1cc(F)c(F)cc1Cl` the activation was inactive: -0.46%.
`COc1cc(OC)c(C(=O)NCC2(N(C)C)CCCCC2)cc1OC` was tested, and the activation was inactive: -2.33%.
With `CC(C)c1ccc(NC2CCN(C(=O)OC(C)(C)C)CC2)cc1` the activation was inactive: 12.5%.
With `CN(C)c1cccc(C(=O)NCC2(N3CCCCC3)CCCCC2)c1` the activation was inactive: 2.05%.
For `COc1ccc(CN(CCCl)CCCl)cc1Cl`, the activation was inactive: -1.44%.
With `CCCOc1ccc(C(=O)NCC2(N(C)C)CCCCC2)cc1OC` the activation was inactive: 3.45%.
In the case of `CN1CCC(Nc2cccc(F)c2)CC1`, the activation is reported as inactive: -0.07%.
`O=C(NCC1(N2CCCCC2)CCCCC1)c1cncc(Br)c1` was tested, and the activation was inactive: -1.89%.
For `N#CC1(Nc2ccccc2)CCN(CCc2ccccc2)CC1`, the activation was inactive: -1.76%.
`CCN1CCC(Nc2ccc(Cl)cc2)CC1` was tested, and the activation was inactive: -2.62%.
With `O=C(NCC1(N2CCCCC2)CCCCC1)c1cccc([N+](=O)[O-])c1` the activation was inactive: -2.24%.
In the case of `CSc1ccc(C(=O)NCC2(N3CCOCC3)CCCCC2)cc1`, the activation is reported as inactive: -0.15%.
In the case of `O=C(NCC1(N2CCCCC2)CCCCC1)c1ccc(OC(F)F)cc1`, the activation is reported as inactive: -1.66%.
With `O=C(NCC1(N2CCOCC2)CCCCC1)c1cc(=O)[nH]c2ccccc12` the activation was inactive: 0.12%.
For `COc1cc(C(=O)NCC2(N3CCCCC3)CCCCC2)ccc1OC(F)F`, the activation was inactive: 1.34%.
For `COc1ccc(NC2CCN(C(=O)OC(C)(C)C)CC2)cc1`, the activation was inactive: -1.85%.
With `CC(C)c1ccc(C(=O)NCC2(N3CCOCC3)CCCCC2)cc1` the activation was inactive: -0.65%.
For `CN1CCN(CCOC(=O)C(O)(c2ccccc2)c2ccccc2)CC1`, the activation was inactive: -2.53%.
In the case of `O=C(NCC1(N2CCCCC2)CCCCC1)c1cccc(C(F)(F)F)c1`, the activation is reported as inactive: -1.85%.
With `CCOC(=O)N1CCC(Nc2ccc(F)cc2)CC1` the activation was inactive: -3.61%.
For `COc1ccc(NC2CCN(CCc3ccccc3)CC2)c(OC)c1`, the activation was inactive: 1.8%.
`CCCCOc1ccc(C(=O)NCC2(N3CCOCC3)CCCCC2)cc1` was tested, and the activation was inactive: 0.57%.
For `O=P1(N(CCCl)CCCl)SCCCS1`, the activation was inactive: -1.24%.
For `O=C(NCC1(N2CCCCC2)CCCCC1)c1ccc(F)cc1`, the activation was inactive: -1.78%.
For `O=C1CCN(Cc2ccccc2)CC1`, the activation was inactive: 0.53%.
For `CCOc1ccc(C)cc1CN(CCCl)CCCl`, the activation was inactive: -1.6%.
In the case of `CCOC(=O)N1CCC(Nc2cccc(C)c2)CC1`, the activation is reported as inactive: -0.41%.
With `COc1cc(C(=O)NCC2(N(C)C)CCCCC2)ccc1OC(F)F` the activation was inactive: 12.1%.
In the case of `Cc1cccc(NC2(C#N)CCN(Cc3ccccc3)CC2)c1`, the activation is reported as inactive: -0.77%.
With `CSc1ccccc1C(=O)NCC1(N2CCCCC2)CCCCC1` the activation was inactive: -1.76%.
In the case of `COc1ccc(C(=O)NCC2(N3CCCCC3)CCCCC2)c(OC)c1OC`, the activation is reported as inactive: -1.26%.
`CC(C)(C)OC(=O)N1CCC(N(C(=O)c2ccccc2)c2ccc(F)cc2)CC1` was tested, and the activation was inactive: -2.47%.
For `COc1ccc(C(=O)NCC2(N3CCCCC3)CCCCC2)cc1`, the activation was inactive: -1.66%.
`O=C(NCC1(N2CCCCC2)CCCCC1)c1cccs1` was tested, and the activation was inactive: -1.57%.
`O=C(NCC1(N2CCCCC2)CCCCC1)c1ccc(=O)[nH]c1` was tested, and the activation was inactive: -0.91%.
For `COc1ccc(Cl)cc1C(=O)NCC1(N2CCOCC2)CCCCC1`, the activation was inactive: -1.91%.
In the case of `O=C(NCC1(N2CCCCC2)CCCCC1)c1ccc(Cl)s1`, the activation is reported as inactive: -1.17%.
For `N#CC1(Nc2ccccc2)CCN(Cc2ccccc2)CC1`, the activation was inactive: -1.7%.
In the case of `O=C(OC1CN2CCC1CC2)C1c2ccccc2Oc2ccccc21` (centres undefined), the activation is reported as inactive: 0.09%.
`CCOC(=O)N1CCC(Nc2ccc(OC)cc2)CC1` was tested, and the activation was inactive: 0.34%.
`Cc1cc(C)cc(N(C(=O)c2ccccc2)C2CCN(C(=O)OC(C)(C)C)CC2)c1` was tested, and the activation was inactive: 3.3%.
`O=C(NCC1(N2CCCCC2)CCCCC1)c1ccc(Cl)nc1` was tested, and the activation was inactive: 0.28%.
With `O=C(NCC1(N2CCOCC2)CCCCC1)c1cc2ccccc2o1` the activation was inactive: 0.5%.
